Values of other authors in US20180177872A1, “Combination of PD-1 antagonist with an EGFR inhibitor” (priority 2015, published 2018).

Test system: EGFR mutants (L858R, ex19del and T790M)
Details: Jia et al, Cancer Res 2014; cited from earlier work

For Cc1cc(C(=O)Nc2nc3cccc(Cl)c3n2[C@@H]2CCCCN(C(=O)/C=C/CN(C)C)C2)ccn1 [Compound A, (R,E)-N-(7-chloro-1-(1-(4-(dimethylamino)but-2-enoyl)azepan-3-yl)-1Hbenzo[d]imidazol-2-yl)-2-methylisonicotinamide], the “selectivity for EGFR mutants over WT EGFR” value is given as “selectively inhibits activating and acquired resistance mutants (L858R, ex19del and T790M), while sparing WT EGFR”.
